Measured values as given in patent US10030020B2, “Spirocycle compounds and methods of making and using same” (Abide Therapeutics, Inc., priority 2016, dated 2018).

Protein sequences, listed by entry. Tags and fused reporters are not part of them.
UniProt O35678, whole entry: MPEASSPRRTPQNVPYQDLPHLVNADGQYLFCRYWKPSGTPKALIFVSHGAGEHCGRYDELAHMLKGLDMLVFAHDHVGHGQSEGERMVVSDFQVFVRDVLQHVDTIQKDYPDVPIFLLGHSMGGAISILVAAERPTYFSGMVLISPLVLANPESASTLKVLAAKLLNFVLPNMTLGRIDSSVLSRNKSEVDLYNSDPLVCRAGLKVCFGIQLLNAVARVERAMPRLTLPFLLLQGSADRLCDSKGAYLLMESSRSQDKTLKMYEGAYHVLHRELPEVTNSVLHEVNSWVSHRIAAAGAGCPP

Molecular target: MAGL (Mus musculus (Mouse), UniProt O35678)
Assay: In vitro competitive activity-based protein profiling (mouse brain membrane fraction or cell lysates), MAGL band
Type: biochemical
Conditions: mouse proteome, competitive ABPP
Procedure: In Vitro Competitive Activity-Based Protein Profiling.
Proteomes (mouse brain membrane fraction or cell lysates) (50 μL, 1.0 mg/mL total protein concentration) were preincubated with varying concentrations of inhibitors at 37° C. After 30 min, FP—Rh (1.0 μL, 50 μM in DMSO) was added and the mixture was incubated for another 30 min at 37° C. Reactions were quenched with SDS loading buffer (50 μL-4×) and run on SDS-PAGE.

SMILES | IC50
COc1ccc(CN2CCCC23CCN(C(=O)OC(C(F)(F)F)C(F)(F)F)CC3)cc1 [Example 1, 1,1,1,3,3,3-Hexafluoropropan-2-yl 1-(4-methoxybenzyl)-1,8-diazaspiro[4.5]decane-8-carboxylate] | 100 to 1000 nM
O=C(OC(C(F)(F)F)C(F)(F)F)N1CCC2(CCCN2Cc2ccc(OCCN3CCOCC3)cc2)CC1 [Example 14, 1,1,1,3,3,3-Hexafluoropropan-2-yl 1-(4-(2-morpholinoethoxy)benzyl)-1,8-diazaspiro[4.5]decane-8-carboxylate] | 100 to 1000 nM
O=C(OC(C(F)(F)F)C(F)(F)F)N1CCC2(CCCN2Cc2cc(N3CCC(C(F)(F)F)CC3)cc(C(F)(F)F)c2)CC1 [Example 44, 1,1,1,3,3,3-Hexafluoropropan-2-yl 1-(3-(trifluoromethyl)-5-(4-(trifluoromethyl)piperidin-1-yl)benzyl)-1,8-diazaspiro[4.5]decane-8-carboxylate] | 100 to 1000 nM
COc1cc(Cl)ccc1CN1CC2(CCN(C(=O)OC(C(F)(F)F)C(F)(F)F)CC2)CC1(C)C [Example 49, 1,1,1,3,3,3-Hexafluoropropan-2-yl 2-(4-chloro-2-methoxybenzyl)-3,3-dimethyl-2,8-diazaspiro[4.5]decane-8-carboxylate] | 100 to 1000 nM
CC1(C)CC2(CCN(C(=O)OC(C(F)(F)F)C(F)(F)F)CC2)CN1Cc1c(N2CC3COCC3C2)cccc1C(F)(F)F (centres unmarked) [Example 57, 1,1,1,3,3,3-Hexafluoropropan-2-yl 3,3-dimethyl-2-(2-(tetrahydro-1H-furo[3,4-c]pyrrol-5(3H)-yl)-6-(trifluoromethyl)benzyl)-2,8-diazaspiro[4.5]decane-8-carboxylate] | 100 to 1000 nM
O=C(OC(C(F)(F)F)C(F)(F)F)N1CCC2(CCCN2Cc2ccccc2)CC1 [Example 63, 1,1,1,3,3,3-Hexafluoropropan-2-yl 1-benzyl-1,8-diazaspiro[4.5]decane-8-carboxylate] | 100 to 1000 nM
O=C(OC(C(F)(F)F)C(F)(F)F)N1CCC2(CCCN2Cc2cccc(N3CCOCC3)c2)CC1 [Example 69, 1,1,1,3,3,3-Hexafluoropropan-2-yl 1-(3-morpholinobenzyl)-1,8-diazaspiro[4.5]decane-8-carboxylate] | 100 to 1000 nM
O=C(OC(C(F)(F)F)C(F)(F)F)N1CCC2(CCCN2Cc2cccc(N3CCN(C4CC4)CC3)c2Cl)CC1 [Example 115, 1,1,1,3,3,3-Hexafluoropropan-2-yl 1-(2-chloro-3-(4-cyclopropylpiperazin-1-yl)benzyl)-1,8-diazaspiro[4.5]decane-8-carboxylate] | 100 to 1000 nM
O=C(OC(C(F)(F)F)C(F)(F)F)N1CCC2(CCCN2Cc2cccc(N3CCC4(CCOCC4)C3)c2Cl)CC1 [Example 117, 1,1,1,3,3,3-Hexafluoropropan-2-yl 1-(2-chloro-3-(8-oxa-2-azaspiro[4.5]decan-2-yl)benzyl)-1,8-diazaspiro[4.5]decane-8-carboxylate] | 100 to 1000 nM
O=C(OC(C(F)(F)F)C(F)(F)F)N1CCC2(CCCN2Cc2ccc(N3CCOCC3)c(Cl)c2)CC1 [Example 127, 1,1,1,3,3,3-Hexafluoropropan-2-yl 1-(3-chloro-4-morpholinobenzyl)-1,8-diazaspiro[4.5]decane-8-carboxylate] | 100 to 1000 nM
O=C(OC(C(F)(F)F)C(F)(F)F)N1CCC2(CCN(Cc3ccc(N4CCOCC4)c(Cl)c3)C2)CC1 [Example 138, 1,1,1,3,3,3-Hexafluoropropan-2-yl 2-(3-chloro-4-morpholinobenzyl)-2,8-diazaspiro[4.5]decane-8-carboxylate] | 100 to 1000 nM
